The text below walks through data of article PMC3745430, “Novel Multiplexed Assay for Identifying SH2 Domain Antagonists of STAT Family Proteins” (PLoS ONE, 2013).

Chains of the proteins cited; added tags and fusions are not shown. Residues count along the entry.
UniProt P51692, 136-703 limits assumed: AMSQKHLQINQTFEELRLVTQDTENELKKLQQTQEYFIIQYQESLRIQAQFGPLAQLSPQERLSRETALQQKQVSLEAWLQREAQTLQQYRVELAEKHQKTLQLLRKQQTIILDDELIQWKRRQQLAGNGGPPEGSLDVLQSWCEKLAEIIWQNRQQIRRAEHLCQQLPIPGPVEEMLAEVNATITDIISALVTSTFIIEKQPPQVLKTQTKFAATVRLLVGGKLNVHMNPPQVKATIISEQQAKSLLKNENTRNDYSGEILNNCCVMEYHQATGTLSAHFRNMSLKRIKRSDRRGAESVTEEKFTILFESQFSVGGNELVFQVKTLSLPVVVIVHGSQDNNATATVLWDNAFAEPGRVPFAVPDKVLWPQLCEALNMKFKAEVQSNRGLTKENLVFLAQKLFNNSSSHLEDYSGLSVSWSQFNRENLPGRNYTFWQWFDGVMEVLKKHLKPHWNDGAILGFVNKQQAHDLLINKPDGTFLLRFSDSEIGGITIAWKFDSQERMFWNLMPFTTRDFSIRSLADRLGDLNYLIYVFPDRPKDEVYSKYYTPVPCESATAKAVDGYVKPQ
UniProt P40763, 136-705 limits assumed: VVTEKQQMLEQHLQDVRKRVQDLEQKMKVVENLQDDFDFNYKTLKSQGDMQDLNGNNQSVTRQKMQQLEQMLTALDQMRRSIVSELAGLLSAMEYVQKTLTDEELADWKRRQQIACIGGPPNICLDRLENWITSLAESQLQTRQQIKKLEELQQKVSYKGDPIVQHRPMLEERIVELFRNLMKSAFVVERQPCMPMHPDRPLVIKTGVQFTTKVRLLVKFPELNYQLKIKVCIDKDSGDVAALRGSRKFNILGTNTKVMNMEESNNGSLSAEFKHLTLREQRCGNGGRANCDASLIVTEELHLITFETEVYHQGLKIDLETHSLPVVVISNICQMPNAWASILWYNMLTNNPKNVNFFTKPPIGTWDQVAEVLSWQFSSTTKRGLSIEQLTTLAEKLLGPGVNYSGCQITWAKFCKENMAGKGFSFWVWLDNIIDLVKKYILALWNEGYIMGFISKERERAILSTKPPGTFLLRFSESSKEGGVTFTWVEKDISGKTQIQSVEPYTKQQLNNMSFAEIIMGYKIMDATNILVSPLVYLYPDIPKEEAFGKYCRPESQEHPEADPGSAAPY

In one assay the target is STAT5b(136–703) (Homo sapiens, UniProt P51692). Put plainly: Multiplexed Alpha assay, STAT5b-SH2 binding (AlphaScreen). The settings on record: read-out: IC50 STAT5b-SH2 binding (STAT5b), mean and SEM, three independent experiments.
The next assay deals with STAT3(136–705) (Homo sapiens, UniProt P40763). Put plainly: Multiplexed Alpha assay, STAT3-SH2 binding (AlphaLISA). The following applies: read-out: IC50 STAT3-SH2 binding (STAT3), mean and SEM, three independent experiments. (Alpha assays give light when donor and acceptor beads are brought close together.)

The structures appear in SMILES notation.

Broadly, the IC50 is the concentration at which inhibition is half-maximal. `O=C1C(Cl)=C(NCCNCCO)C(=O)c2ccccc21`: the IC50 stood at 20 µM at STAT5b(136–703) and 12 µM at STAT3(136–705).
